IC50 data for three molecules are collected here from patent US9273057B2 (Bristol-Myers Squibb Company, priority 2012, dated 2016).

Protein sequences, listed by entry. Tags and fused reporters are not part of them.
UniProt P68400, whole entry, looked up: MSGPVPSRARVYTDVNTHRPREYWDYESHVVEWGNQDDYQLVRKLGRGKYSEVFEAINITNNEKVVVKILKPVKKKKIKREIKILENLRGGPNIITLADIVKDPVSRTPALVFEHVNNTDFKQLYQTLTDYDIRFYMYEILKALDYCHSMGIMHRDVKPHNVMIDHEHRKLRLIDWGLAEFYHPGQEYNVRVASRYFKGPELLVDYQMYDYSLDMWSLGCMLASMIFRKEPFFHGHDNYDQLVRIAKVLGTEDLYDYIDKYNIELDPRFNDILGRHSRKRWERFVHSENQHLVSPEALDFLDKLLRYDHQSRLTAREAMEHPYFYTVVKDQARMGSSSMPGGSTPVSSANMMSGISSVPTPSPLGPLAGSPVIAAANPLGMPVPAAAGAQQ

The target in the assay is CK2A1 (CK2α/β) (Homo sapiens, UniProt P68400). Nature of the assay: CK2 kinase assay, CK2A1 (CK2α/β). To be noted: read-out: CK2A1 (CK2α/β) (IC50); Table A. The assay is classed as biochemical.
For the molecule `CCNc1nc(Nc2cc(C#N)cc(N3CC[C@@H](NC(=O)OC)[C@@H](O)C3)c2Cl)nn2c(C#N)cnc12`, the IC50 amounted to 0.89 nM.
The result for `CCNc1nc(Nc2cc(C#N)cc(N3CC[C@H](NC(=O)OC)[C@@H](O)C3)c2Cl)nn2c(C#N)cnc12` (racemic) reads 0.86 nM; that for `CCNc1nc(Nc2cc(C#N)cc(N3CC[C@H](NC(=O)OC)[C@H](O)C3)c2Cl)nn2c(C#N)cnc12`, 0.57 nM.
